For orientation: Ki means the equilibrium dissociation constant of an inhibitor or competing ligand from its target. A high value points to a looser hold on the target.

Chains of the proteins cited; added tags and fusions are not shown.
UniProt P33535, whole entry: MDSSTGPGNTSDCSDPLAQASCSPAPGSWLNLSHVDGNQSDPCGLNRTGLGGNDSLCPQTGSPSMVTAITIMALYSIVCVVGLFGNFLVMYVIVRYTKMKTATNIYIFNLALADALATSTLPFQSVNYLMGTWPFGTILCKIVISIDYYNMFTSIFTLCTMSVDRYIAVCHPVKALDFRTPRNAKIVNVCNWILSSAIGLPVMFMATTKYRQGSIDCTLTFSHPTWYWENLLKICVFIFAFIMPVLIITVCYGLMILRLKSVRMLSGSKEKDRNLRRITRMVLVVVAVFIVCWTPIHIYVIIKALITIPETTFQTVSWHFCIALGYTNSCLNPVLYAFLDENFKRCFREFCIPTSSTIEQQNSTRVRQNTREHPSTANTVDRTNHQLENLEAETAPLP

Molecules are shown by their SMILES.

For this assay, the target named is Mu-type opioid receptor (Rattus norvegicus, UniProt P33535). Put plainly: Compound was evaluated for its ability to displace [3H]DAMGO in C6 glioma cells expressing the cloned Opioid receptor mu 1. The format is cell-based.

Compound `Oc1ccc2c3c1O[C@H]1c4[nH]c5ccccc5c4C[C@@]4(O)[C@@H](C2)N(CC2CC2)CC[C@]314` [NALTRINDOLE] registered a Ki of 3.7 nM.

Source of the values: ChEMBL document CHEMBL1132798, “N-Cyclohexylethyl-N-noroxymorphindole: a mu-opioid preferring analogue of naltrindole” (Bioorg Med Chem Lett, 2000).
